In one assay the target is T1, ALDH2 (UniProt P05091).
T1 sequence (whole entry): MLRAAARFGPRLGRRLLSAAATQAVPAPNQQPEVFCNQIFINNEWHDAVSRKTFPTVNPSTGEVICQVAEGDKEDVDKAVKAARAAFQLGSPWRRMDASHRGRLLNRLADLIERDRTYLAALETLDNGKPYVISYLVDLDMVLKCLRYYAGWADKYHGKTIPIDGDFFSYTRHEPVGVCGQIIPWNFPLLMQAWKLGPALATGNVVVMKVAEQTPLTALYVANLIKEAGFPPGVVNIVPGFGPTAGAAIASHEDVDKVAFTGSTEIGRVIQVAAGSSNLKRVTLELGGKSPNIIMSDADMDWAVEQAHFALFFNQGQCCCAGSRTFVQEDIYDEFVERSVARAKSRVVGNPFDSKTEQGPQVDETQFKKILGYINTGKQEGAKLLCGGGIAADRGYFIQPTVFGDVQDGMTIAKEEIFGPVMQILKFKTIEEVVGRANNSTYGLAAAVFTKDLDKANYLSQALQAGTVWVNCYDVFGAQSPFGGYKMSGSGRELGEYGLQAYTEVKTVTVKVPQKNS
Briefly: IC50 of competition for binding to PARP-centric bead matrix. The note with it: affinity matrix: PARP family-centric bead mix; lysate: MDA-MB-231.

Sequences of proteins named here, by UniProt entry; tags and fusion partners are left off. A change or cut given only in a name is not applied to a line headed by its entry.
UniProt Q9H422: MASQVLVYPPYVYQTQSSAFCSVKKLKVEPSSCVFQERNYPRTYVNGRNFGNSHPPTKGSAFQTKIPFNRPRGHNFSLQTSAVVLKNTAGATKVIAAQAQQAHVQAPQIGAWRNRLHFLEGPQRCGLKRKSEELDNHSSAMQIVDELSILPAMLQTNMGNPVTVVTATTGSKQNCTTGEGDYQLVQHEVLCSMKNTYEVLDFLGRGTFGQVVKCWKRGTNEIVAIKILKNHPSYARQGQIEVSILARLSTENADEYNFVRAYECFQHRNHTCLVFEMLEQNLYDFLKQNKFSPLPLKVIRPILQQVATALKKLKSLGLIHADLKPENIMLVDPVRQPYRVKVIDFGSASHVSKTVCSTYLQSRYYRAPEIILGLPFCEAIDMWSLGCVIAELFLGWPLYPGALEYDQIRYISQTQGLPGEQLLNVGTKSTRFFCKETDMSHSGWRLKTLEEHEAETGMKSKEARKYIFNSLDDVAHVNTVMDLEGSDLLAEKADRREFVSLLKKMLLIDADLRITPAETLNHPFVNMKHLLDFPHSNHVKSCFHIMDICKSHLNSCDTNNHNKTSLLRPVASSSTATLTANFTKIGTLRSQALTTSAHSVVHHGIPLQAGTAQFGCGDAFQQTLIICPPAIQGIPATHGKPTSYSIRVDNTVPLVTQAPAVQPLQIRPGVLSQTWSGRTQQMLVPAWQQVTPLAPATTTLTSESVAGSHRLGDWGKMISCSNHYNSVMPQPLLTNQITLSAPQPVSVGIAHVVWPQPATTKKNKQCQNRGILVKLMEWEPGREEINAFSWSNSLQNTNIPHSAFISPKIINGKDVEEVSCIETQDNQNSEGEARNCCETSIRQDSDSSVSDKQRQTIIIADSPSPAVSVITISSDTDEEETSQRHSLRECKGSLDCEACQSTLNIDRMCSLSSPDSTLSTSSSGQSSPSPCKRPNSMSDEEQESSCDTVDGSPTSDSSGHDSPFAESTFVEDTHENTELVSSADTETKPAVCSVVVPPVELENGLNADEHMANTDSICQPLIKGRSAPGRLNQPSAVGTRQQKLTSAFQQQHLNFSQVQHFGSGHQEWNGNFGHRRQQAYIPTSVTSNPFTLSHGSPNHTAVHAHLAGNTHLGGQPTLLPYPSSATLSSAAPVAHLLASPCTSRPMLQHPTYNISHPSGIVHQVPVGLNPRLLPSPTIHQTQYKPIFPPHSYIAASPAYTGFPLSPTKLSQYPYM
UniProt Q9HBL8: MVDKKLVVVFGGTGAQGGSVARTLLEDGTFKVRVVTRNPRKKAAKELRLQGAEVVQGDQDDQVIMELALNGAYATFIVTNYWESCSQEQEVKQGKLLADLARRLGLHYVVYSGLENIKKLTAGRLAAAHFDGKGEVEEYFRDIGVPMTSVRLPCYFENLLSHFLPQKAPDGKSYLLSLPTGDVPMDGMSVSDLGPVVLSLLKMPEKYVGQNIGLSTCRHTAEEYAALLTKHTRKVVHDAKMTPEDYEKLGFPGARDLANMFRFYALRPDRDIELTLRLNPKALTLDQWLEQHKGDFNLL
UniProt P09769: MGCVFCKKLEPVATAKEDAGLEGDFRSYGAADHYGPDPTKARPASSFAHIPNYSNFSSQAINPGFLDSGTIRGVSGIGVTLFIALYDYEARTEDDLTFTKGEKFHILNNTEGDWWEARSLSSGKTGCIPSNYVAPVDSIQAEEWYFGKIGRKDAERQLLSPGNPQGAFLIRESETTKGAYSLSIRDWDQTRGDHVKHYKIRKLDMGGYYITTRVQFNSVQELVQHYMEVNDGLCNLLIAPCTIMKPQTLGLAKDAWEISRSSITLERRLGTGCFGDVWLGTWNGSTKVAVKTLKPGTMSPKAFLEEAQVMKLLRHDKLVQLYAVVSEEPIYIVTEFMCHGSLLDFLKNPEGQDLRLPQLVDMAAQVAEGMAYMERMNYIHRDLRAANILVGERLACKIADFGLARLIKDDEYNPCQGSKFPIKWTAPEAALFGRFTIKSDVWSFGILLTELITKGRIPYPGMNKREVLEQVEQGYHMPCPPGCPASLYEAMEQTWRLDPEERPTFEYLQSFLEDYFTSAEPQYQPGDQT
UniProt P08069, whole entry, looked up: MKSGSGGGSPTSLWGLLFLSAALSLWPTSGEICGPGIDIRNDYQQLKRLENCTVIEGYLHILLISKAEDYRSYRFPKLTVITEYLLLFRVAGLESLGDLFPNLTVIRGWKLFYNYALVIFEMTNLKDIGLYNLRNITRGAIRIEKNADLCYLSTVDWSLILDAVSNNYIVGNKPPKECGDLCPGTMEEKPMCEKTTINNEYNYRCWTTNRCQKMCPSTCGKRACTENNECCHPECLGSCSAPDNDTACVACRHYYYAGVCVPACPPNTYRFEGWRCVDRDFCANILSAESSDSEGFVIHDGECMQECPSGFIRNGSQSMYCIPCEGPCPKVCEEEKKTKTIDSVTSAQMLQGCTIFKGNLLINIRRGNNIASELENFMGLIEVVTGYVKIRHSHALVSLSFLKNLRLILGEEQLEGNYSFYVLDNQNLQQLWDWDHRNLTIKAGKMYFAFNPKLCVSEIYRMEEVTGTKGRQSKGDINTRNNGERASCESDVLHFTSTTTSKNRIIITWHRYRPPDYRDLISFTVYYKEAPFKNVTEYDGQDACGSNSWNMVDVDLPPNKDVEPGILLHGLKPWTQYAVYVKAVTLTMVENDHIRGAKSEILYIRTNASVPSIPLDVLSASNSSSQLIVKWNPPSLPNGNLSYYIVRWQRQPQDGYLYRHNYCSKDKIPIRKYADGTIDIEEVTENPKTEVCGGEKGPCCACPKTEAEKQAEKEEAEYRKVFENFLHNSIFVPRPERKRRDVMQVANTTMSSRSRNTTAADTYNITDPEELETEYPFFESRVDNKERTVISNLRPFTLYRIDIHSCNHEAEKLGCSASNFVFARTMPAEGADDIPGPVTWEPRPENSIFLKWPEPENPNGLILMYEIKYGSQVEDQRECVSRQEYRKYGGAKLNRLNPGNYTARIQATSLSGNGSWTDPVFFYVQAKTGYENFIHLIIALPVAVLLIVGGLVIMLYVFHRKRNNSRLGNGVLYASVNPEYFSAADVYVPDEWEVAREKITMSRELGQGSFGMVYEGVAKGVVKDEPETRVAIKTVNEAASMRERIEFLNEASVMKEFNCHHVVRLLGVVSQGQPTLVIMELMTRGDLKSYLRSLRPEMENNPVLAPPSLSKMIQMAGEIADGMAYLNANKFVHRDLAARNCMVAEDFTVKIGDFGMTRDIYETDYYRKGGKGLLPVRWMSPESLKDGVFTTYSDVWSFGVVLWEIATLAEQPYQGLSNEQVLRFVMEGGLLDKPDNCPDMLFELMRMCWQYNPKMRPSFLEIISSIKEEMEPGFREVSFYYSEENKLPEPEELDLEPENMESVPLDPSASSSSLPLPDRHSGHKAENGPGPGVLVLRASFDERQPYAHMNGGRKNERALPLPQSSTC

For assay [1], the target named is T2, NQO2 (UniProt P16083).
T2 sequence (whole entry): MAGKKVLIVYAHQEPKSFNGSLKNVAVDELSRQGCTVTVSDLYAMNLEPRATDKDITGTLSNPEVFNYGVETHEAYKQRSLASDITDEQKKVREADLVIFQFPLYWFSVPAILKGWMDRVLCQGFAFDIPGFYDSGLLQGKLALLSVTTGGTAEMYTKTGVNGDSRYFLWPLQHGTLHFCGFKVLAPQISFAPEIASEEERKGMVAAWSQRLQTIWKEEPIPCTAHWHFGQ
The assay is described as above. Conditions: affinity matrix: PARP family-centric bead mix; lysate: MDA-MB-231.

The next assay concerns the target HIPK3 (UniProt Q9H422). The assay is described as above. Conditions: affinity matrix: PARP family-centric bead mix; lysate: MDA-MB-231.
For the next assay, the target named is T3, ICK (UniProt Q9UPZ9).
T3 sequence (whole entry): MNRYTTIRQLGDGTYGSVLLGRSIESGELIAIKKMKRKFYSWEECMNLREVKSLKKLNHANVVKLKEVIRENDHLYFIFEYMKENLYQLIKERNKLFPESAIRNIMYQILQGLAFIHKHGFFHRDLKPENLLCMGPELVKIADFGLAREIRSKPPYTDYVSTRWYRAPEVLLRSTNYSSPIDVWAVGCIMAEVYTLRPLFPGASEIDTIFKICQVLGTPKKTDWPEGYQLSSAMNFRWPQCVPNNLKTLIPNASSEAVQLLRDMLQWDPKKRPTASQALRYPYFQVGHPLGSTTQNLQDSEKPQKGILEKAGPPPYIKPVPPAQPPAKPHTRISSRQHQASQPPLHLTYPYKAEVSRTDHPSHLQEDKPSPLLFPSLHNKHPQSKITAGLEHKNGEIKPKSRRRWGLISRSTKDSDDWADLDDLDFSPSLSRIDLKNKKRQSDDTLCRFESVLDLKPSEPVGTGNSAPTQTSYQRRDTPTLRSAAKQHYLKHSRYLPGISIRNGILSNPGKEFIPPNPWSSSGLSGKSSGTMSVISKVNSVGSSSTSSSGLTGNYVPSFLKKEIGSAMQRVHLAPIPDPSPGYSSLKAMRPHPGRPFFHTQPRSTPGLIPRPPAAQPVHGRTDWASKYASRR
The description is as above. Conditions: affinity matrix: PARP family-centric bead mix; lysate: MDA-MB-231.

Another assay deals with NMRAL1 (UniProt Q9HBL8). Briefly: IC50 of competition for binding to immobilized-niraparib matrix. The note with it: affinity matrix: immobilized niraparib (NHS-Sepharose); lysate: 1:1:1:1 mix of HEK293, K-562, placenta, HepG2 Princen.
Assay [2] has as its target T2, NQO2. Described as above. The note with it: affinity matrix: immobilized niraparib (NHS-Sepharose); lysate: 1:1:1:1 mix of HEK293, K-562, placenta, HepG2 Princen.
The next assay addresses FGR (UniProt P09769). The assay can be described thus: apparent dissociation constant pKd app (kinobead competition) (-log10(M)); higher = stronger binding.
The next assay deals with STK39 (UniProt Q9UEW8). Described as above.
The target in another assay is IGF1R (UniProt P08069). The description is as above.
Another assay concerns the target CDK2 (UniProt P24941). The description is as above.
A further assay has as its target T4, NEK9 (UniProt Q8TD19).
T4 sequence (whole entry): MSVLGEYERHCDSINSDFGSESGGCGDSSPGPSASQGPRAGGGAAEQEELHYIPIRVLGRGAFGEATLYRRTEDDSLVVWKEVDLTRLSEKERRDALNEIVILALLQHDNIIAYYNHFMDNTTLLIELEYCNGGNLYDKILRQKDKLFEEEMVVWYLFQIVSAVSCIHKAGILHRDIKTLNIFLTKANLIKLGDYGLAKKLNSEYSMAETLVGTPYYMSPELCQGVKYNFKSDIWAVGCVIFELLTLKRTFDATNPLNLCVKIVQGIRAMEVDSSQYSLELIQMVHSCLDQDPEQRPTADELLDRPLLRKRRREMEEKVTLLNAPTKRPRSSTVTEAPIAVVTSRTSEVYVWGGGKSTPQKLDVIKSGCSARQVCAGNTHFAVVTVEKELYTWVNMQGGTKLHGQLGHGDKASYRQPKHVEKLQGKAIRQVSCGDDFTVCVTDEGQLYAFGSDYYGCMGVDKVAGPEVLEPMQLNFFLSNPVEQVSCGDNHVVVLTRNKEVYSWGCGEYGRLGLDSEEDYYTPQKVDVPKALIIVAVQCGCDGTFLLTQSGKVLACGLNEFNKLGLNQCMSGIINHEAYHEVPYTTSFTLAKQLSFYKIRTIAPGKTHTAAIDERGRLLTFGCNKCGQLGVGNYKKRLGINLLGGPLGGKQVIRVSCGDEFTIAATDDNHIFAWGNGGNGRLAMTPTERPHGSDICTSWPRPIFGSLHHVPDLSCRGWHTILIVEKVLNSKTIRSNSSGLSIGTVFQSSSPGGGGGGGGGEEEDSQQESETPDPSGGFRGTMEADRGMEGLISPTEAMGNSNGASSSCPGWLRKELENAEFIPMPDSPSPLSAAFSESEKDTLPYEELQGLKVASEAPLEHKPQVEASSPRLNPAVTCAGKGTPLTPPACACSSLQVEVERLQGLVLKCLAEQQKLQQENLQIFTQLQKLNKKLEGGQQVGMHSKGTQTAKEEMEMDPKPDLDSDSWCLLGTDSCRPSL
Described as above.

Regarding `NC(=O)c1cccc2cn(-c3ccc([C@@H]4CCCNC4)cc3)nc12` [Niraparib], the concentration for half-maximal inhibition (IC50) is 22 µM at ALDH2; 1470 nM at NQO2 [1]; 0.17 µM at HIPK3; 14 µM on ICK; 2.19 µM at NMRAL1; 5.59 µM on NQO2 [2]. In addition, the “apparent dissociation constant pKd app (-log10)” value at FGR was less than 4.8; at STK39, less than 4.5; on IGF1R it was less than 4.5; on CDK2, less than 4.7; on NEK9, less than 4.6.
Consider `Cn1ncnc1[C@H]1c2n[nH]c(=O)c3cc(F)cc(c23)N[C@@H]1c1ccc(F)cc1` [Talazoparib], for which the IC50 on ALDH2 is greater than 30 µM; at NQO2 [1] it was greater than 30000 nM; on HIPK3, greater than 30 µM; on ICK it was greater than 30 µM; at NMRAL1, greater than 30 µM; at NQO2 [2] it was greater than 30 µM. Besides, the “apparent dissociation constant pKd app (-log10)” value at FGR was less than 4.8; on STK39, less than 4.5; on IGF1R, less than 4.5; on CDK2, less than 4.7; at NEK9 it was less than 4.6.
`O=C(c1cc(Cc2n[nH]c(=O)c3ccccc23)ccc1F)N1CCN(C(=O)C2CC2)CC1` [Olaparib]: the IC50 on ALDH2 was greater than 30 µM; at NQO2 [1], 2440 nM; on HIPK3 it was greater than 30 µM; at ICK, greater than 30 µM; on NMRAL1, 9.7 µM; on NQO2 [2], 2.3 µM. Besides, the “apparent dissociation constant pKd app (-log10)” value at FGR is less than 4.8; on STK39, less than 4.5; at IGF1R, less than 4.5; on CDK2, less than 4.7; at NEK9, less than 4.6.
